Experiments:
[1] = Plasma ANP immunoreactivity and pharmacokinetics after subcutaneous administration to conscious canines; format: in vivo, canine
Method: (§1) Studies were performed in accordance with the Animal Welfare Act and with approval of the Mayo Clinic Institutional Animal Care and Use Committee. A randomized crossover study was designed in which equimolar (2.225 nmol/kg) SQ M-ANP and SQ ANP were administered to conscious healthy adult canines (n=5) at 2-week intervals. Vehicle (SQ 0.9% normal saline) was administered to 3 canines serving as a control group. At least 7 days prior to the above studies, an arterial port was placed in the femoral artery as previously described (Cataliotti et al. (2008) Circulation, 118:1729-1736). After recovery from arterial port placement, canines were fed a fixed sodium diet of 100 mEq/d with ad libitum access to water for 5 days before initiation of studies. During this time, canines were acclimatized to standing calm in a sling. On the day of the experiment, the dogs were fasted and placed in a sling in a quiet room. Thirty minutes before the beginning of the experiment, the femoral artery port was accessed for continuous BP and heart rate assessment (iWorx, Dover, N.H.). After 30 minutes of acclimatization, the study protocol was started. Subcutaneous M-ANP, ANP or vehicle was administered at time 0 minutes. At time −15, 0, 5, 10, 15, 30, 45, 60, 75, 90, 120, 150, 180, 210, 240, 270, and 300 minutes, mean arterial pressure (MAP) and heart rate samples were obtained over a period of 1 minute. At the same times, arterial blood samples were obtained for measurement of plasma ANP and cGMP immunoreactivity. The study was completed 300 minutes after the SQ administration of M-ANP, ANP, or vehicle, and the arterial port was disengaged. Canines were allowed to recuperate for two weeks between studies.
Blood samples were collected in chilled EDTA tubes, immediately placed on ice, and centrifuged at 4° C. Plasma was stored at −80° C. until analysis. After extraction, plasma ANP immunoreactivity (Phoenix Pharmaceuticals, Burlingame, Calif.) was assessed by radioimmunoassay as previously described (Burnett et al. (1986) Science, 231:1145-1147). The cross-reactivity for M-ANP with the above assay is 100% (McKie et al. (2010) Hypertension, 56:1152-1159). Plasma cGMP (PerkinElmer, Waltham, Mass.) was assessed by radioimmunoassay (Steiner et al., supra).
Pharmacokinetic profile of M-ANP compared to ANP was determined using PK Solutions software (Summit PK, Montrose, Colo.). Specific parameters that were determined included plasma half-life, maximum concentration (Cmax) and area under the curve (AUC).

[2] = Mean arterial pressure and heart rate after subcutaneous administration to conscious canines; format: in vivo, canine; details: SQ
Method: as §1, with “At the same times, arterial blood samples were obtained for measurement of plasma ANP and cGMP immunoreactivity. The study was completed 300 minutes after the SQ administration of M-ANP, ANP, or vehicle, and the arterial port was disengaged. Canines were allowed to recuperate for two weeks between studies.” left out

SMILES: CC[C@H](C)[C@@H]1NC(=O)[C@H](CCCNC(=N)N)NC(=O)[C@H](CC(=O)O)NC(=O)[C@H](CCSC)NC(=O)[C@H](CCCNC(=N)N)NC(=O)CNC(=O)CNC(=O)[C@H](Cc2ccccc2)NC(=O)[C@@H](NC(=O)[C@H](CO)NC(=O)[C@H](CO)NC(=O)[C@H](CCCNC(=N)N)NC(=O)[C@H](CCCNC(=N)N)NC(=O)[C@H](CC(C)C)NC(=O)[C@@H](N)CO)CSSC[C@@H](C(=O)N[C@@H](CC(N)=O)C(=O)N[C@@H](CO)C(=O)N[C@@H](Cc2ccccc2)C(=O)N[C@@H](CCCNC(=N)N)C(=O)N[C@@H](Cc2ccc(O)cc2)C(=O)N[C@@H](CCCNC(=N)N)C(=O)N[C@H](C(=O)N[C@H](C(=O)N[C@@H](C)C(=O)N[C@@H](CCCNC(=N)N)C(=O)N[C@@H](CCC(=O)O)C(=O)N[C@@H](CC(=O)O)C(=O)N[C@@H](CCCCN)C(=O)N[C@@H](CCC(N)=O)C(=O)NCC(=O)N[C@@H](Cc2c[nH]c3ccccc23)C(=O)N[C@@H](C)C(=O)O)[C@@H](C)O)[C@@H](C)CC)NC(=O)CNC(=O)[C@H](CC(C)C)NC(=O)CNC(=O)[C@H](CO)NC(=O)[C@H](CCC(N)=O)NC(=O)[C@H](C)NC(=O)CNC1=O [M-ANP]
- time ANP immunoreactivity remained significantly elevated ([1]; SQ, canines): 150 min
- time of peak ANP immunoreactivity after administration ([1]; SQ, canines): 60 min
- half-life ([1]; dog, in vivo, sc, subcutaneous, equimolar 2.225 nmol/kg, conscious canines): 47.4 ± 12.7 min
- Cmax ([1]; dog, in vivo, sc, subcutaneous, equimolar 2.225 nmol/kg, conscious canines, read-out: ANPi Cmax): 0.38 ± 0.1 nM
- half-life ([1]; dog, in vivo, SQ-administered, canines): 47 min
- ANPi AUC ([1]; subcutaneous, equimolar 2.225 nmol/kg, conscious canines): 44.9 ± 12.3 pmol·min/mL
- heart rate compared to ANP administration [2]: not significantly different
